Assay results as given in ChEMBL document CHEMBL3872253, “Synthesis and in vitro antiproliferative activity of C5-benzyl substituted 2-amino-pyrrolo[2,3-d]pyrimidines as potent Hsp90 inhibitors” (Bioorg Med Chem Lett, 2017).

Experiment: cells
Details: Homo sapiens, NCI-H322M, 48 h

CC(C)NCCCn1c(Sc2cc3c(cc2I)OCO3)nc2c(N)ncnc21 [PU-H71]
GI50: 170 nM
